# PMC2963127, “Genotoxicity Revaluation of Three Commercial Nitroheterocyclic Drugs: Nifurtimox, Benznidazole, and Metronidazole” (Journal of Parasitology Research, 2009)
# Test system: human leukocytes
# Test: Alkaline comet assay
# Conditions: 37°C, 1 hour
structure (smiles),measurement,value
"O=C(Cn1ccnc1[N+](=O)[O-])NCc1ccccc1 [BNZ, N-benzyl-2-(2-nitroimidazol-1-yl)acetamide]","Specific genotoxic activity, DNA migration/dose unit (I: alkaline comet assay)",0.3357 (r ^2 = 0.941) μm/μM
